The structures appear in SMILES notation.

This assay has as its target T1, Relaxin receptor 1 (Homo sapiens) (UniProt Q9HBX9).
T1 sequence (whole entry): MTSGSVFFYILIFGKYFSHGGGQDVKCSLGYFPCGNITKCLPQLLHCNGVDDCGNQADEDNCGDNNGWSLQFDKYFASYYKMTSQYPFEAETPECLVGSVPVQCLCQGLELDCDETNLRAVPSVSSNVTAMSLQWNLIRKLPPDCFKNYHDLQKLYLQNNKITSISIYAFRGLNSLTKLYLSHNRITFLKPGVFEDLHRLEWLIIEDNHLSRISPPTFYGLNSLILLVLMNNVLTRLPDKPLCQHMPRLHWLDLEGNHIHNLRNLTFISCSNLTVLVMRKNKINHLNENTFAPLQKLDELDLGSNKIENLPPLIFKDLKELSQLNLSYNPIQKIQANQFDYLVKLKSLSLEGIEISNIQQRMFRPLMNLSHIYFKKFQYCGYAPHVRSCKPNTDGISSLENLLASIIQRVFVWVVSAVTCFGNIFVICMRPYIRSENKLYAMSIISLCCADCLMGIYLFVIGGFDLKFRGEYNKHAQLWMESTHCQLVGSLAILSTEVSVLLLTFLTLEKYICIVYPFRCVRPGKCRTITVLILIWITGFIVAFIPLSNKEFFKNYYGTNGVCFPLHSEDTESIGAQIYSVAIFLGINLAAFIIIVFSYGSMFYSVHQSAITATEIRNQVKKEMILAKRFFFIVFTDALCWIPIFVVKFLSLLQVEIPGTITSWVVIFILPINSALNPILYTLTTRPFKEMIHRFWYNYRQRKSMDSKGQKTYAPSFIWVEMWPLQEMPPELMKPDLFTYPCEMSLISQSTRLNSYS
Put plainly: Agonist activity at human RXFP1 expressed in human CHO-K1 cells assessed as inhibition of H2 relaxin-induced cAMP accumulation at 10 uM incubated for 30 mins by TR-FRET assay relative to H2 relaxin. The arrangement: scale not given: the % may be the effect or the level left. The class given is functional, cell-based. (In general: Changes in cAMP serve as a functional read-out for many G protein-coupled receptors.)
As to `COc1cc(C)c2[nH]cc(/C=N/NC(=N)NCCc3cccnc3)c2c1`, the Activity is less than 10%.
Regarding `CCc1cc(OC)cc2c(/C=N/NC(=N)NCCc3ccc(Cl)cc3)c[nH]c12`, the Activity was less than 10%.
Take `CCc1cc(C#N)cc2c(/C=N/NC(=N)NCCc3cccnc3)c[nH]c12`: the Activity was less than 15%.
As for `Cc1cc(C#N)cc2c(/C=N/NC(=N)NCCc3ccc(Cl)cc3)c[nH]c12`, the Activity is less than 10%.
In the case of `COc1cc(C)c2[nH]cc(/C=N/NC(=N)NCCc3cccs3)c2c1`, the Activity was less than 15%.
As for `COc1cc(C)c2[nH]cc(/C=N/NC(=N)NCCc3ccc(F)cc3)c2c1`, the Activity was less than 10%.
Consider `COc1cc(C)c2[nH]cc(/C=N/NC(=N)NCCc3ccc(N(C)C)cc3)c2c1`, for which the Activity is less than 10%.
For the compound `CCc1cc(OC)cc2c(/C=N/NC(=N)NCCc3ccc(C#N)cc3)c[nH]c12`, the Activity was less than 10%.
Turning to `COc1cc(C)c2[nH]cc(/C=N/NC(=N)NCCc3ccc(I)cc3)c2c1`, the Activity was less than 10%.
Consider `CCc1cc(OC)cc2c(/C=N/NC(=N)NCCc3cccnc3)c[nH]c12`, for which the Activity is less than 10%.
For `COc1cc(C)c2[nH]cc(/C=N/NC(=N)NCCc3ccccn3)c2c1`, the Activity is less than 10%.
The figure for `COc1cc(C)c2[nH]cc(/C=N/NC(=N)NCCc3ccc(C#N)cc3)c2c1` is less than 10%.
For `CCc1cc(OC)cc2c(/C=N/NC(=N)NCCc3ccc(F)cc3)c[nH]c12`, the Activity is less than 10%.
To `COC(=O)c1ccc(CCNC(=N)N/N=C/c2c[nH]c3c(C)cc(C#N)cc23)cc1` belongs less than 10%.
The figure for `COc1ccc(CCNC(=N)N/N=C/c2c[nH]c3c(C)cc(OC)cc23)cc1` is less than 10%; for `COC(=O)c1ccc(CCNC(=N)N/N=C/c2c[nH]c3c(C)cc(OC)cc23)cc1` it is less than 10%; for `COc1cc(C)c2[nH]cc(/C=N/NC(=N)NCCc3ccc(Cl)cc3)c2c1` it is less than 10%.
To `CCc1cc(O)cc2c(/C=N/NC(=N)NCCc3ccc(Cl)cc3)c[nH]c12` belongs less than 10%; to `COc1cc(C)c2[nH]cc(/C=N/NC(=N)NCCc3ccncc3)c2c1`, less than 10%; to `COc1cc(C)c2[nH]cc(/C=N/NC(=N)NCCc3ccc([N+](=O)[O-])cc3)c2c1`, less than 10%.
Consider `COc1cc(C)c2[nH]cc(/C=N/NC(=N)NCCc3ccsc3)c2c1`, for which the Activity was less than 10%.
As to `COc1cc(C)c2[nH]cc(/C=N/NC(=N)NCCc3ccc(Br)cc3)c2c1`, the Activity is less than 10%.

For the origin of these results see ChEMBL document CHEMBL5032539, “Indole-Containing Amidinohydrazones as Nonpeptide, Dual RXFP3/4 Agonists: Synthesis, Structure-Activity Relationship, and Molecular Modeling Studies” (J Med Chem, 2021).
